Laboratory results taken from publication PMC4691061, “Repositioning of Thiourea-Containing Drugs as Tyrosinase Inhibitors” (International Journal of Molecular Sciences, 2015).

Sequences of proteins named here, by UniProt entry; tags and fusion partners are left off. Residues count along the entry.
UniProt C7FF04, 1-392: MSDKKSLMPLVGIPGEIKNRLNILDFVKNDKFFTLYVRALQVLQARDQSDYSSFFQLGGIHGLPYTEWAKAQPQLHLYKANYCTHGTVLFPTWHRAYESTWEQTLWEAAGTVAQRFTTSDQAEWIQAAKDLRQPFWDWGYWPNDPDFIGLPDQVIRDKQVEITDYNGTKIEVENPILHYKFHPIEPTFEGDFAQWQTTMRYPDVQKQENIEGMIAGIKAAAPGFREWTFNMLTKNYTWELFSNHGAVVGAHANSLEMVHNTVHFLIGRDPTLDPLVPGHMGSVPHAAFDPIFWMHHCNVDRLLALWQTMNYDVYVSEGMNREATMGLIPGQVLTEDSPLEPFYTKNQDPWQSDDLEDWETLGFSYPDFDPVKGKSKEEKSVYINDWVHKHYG

Molecular target: mushroom tyrosinase (Agaricus bisporus, UniProt C7FF04)
Assay: Mushroom tyrosinase enzyme activity inhibition assay
Type: biochemical

## Cn1cc[nH]c1=S [compound 5, Methimazole]
  LE (ligand efficiency): 0.81

## CCCc1cc(=O)[nH]c(=S)[nH]1 [compound 9, Propylthiouracil]
  LE (ligand efficiency): 0.44
